We go through 1 compound from patent US8604200B2, “Diaza-spiro-{4,4}-nonane derivatives as neurokinin (NK1) antagonists” (Janssen Pharmaceutica N.V., priority 2005, dated 2013).

The chains behind the UniProt entries cited, without tags or fusion partners.
UniProt P29371, whole entry: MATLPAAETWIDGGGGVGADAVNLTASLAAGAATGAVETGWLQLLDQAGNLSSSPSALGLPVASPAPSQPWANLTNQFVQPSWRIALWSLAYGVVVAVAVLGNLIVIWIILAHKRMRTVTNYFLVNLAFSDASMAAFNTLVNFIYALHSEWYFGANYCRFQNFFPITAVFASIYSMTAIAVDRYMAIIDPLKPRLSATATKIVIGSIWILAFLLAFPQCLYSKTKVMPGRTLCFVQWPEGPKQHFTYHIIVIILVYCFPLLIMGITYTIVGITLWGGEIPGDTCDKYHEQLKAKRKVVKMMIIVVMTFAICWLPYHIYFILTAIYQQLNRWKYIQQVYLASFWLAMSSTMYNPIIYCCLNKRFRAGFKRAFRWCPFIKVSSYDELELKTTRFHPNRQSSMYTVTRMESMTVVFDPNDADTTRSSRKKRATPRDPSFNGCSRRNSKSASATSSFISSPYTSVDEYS
UniProt P25103, whole entry: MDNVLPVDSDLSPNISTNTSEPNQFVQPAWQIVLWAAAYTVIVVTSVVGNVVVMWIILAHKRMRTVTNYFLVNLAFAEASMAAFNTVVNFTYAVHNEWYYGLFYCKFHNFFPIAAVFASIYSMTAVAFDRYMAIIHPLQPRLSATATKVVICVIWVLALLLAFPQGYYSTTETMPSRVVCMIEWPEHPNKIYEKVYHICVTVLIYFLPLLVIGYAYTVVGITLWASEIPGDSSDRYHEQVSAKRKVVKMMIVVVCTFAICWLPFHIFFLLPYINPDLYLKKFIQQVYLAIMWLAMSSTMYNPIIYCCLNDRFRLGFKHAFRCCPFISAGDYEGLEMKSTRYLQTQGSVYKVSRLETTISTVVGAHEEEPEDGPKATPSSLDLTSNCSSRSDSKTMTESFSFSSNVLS
UniProt P21452, whole entry: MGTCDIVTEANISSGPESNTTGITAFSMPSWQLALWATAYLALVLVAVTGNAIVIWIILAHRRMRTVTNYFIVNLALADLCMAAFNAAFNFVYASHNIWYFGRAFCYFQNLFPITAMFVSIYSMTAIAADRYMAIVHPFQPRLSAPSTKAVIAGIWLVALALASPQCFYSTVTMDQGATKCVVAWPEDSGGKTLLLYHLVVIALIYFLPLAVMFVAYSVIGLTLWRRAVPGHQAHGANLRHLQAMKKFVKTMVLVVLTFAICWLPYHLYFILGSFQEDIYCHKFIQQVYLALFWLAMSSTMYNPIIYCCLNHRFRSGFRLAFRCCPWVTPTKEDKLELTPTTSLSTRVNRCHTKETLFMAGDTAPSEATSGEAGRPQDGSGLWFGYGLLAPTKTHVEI

Details in all cases: antagonist response, Ca++ transient peak
One experiment has as its target NK3 (Homo sapiens, UniProt P29371). The experiment in a line: Signal transduction (ST), intracellular Ca++ FLIPR, NK3.
Another experiment has as its target NK1 (Homo sapiens, UniProt P25103). Briefly: Signal transduction (ST), intracellular Ca++ FLIPR, NK1. Here is the method:
This test evaluates in vitro functional NK1 antagonistic activity. For the measurements of intracellular Ca^++ concentrations the cells were grown on 96-well (black wall/transparent bottom) plates from Costar for 2 days until they reached confluence. The cells were loaded with 2 μM Fluo3 in DMEM containing 0.1% BSA and 2.5 mM probenecid for 1 h at 37° C. They were washed 3× with a Krebs buffer (140 mM NaCl, 1 mM MgCl2×6H2O, 5 mM KCl, 10 mM glucose, 5 mM HEPES; 1.25 mM CaCl2; pH 7.4) containing 2.5 mM probenecid and 0.1% BSA (Ca^++-buffer). The cells were preincubated with a concentration range of antagonists for 20 min at RT and Ca^++-signals after addition of the agonists were measured in a Fluorescence Inage Plate Reader (FLIPR from Molecular Devices, Crawley, England). The peak of the Ca^++-transient was considered as the relevant signal and the mean values of corresponding wells were analysed as described below. The sigmoidal dose response curves were analysed by computerised curve-fitting, using the GraphPad Program. The EC50-value of a compound is the effective dose showing 50% of maximal effect. For mean curves the response to the agonist with the highest potency was normalised to 100%. For antagonist responses the IC50-value was calculated using non-linear regression. The last column indicates—without being limited thereto—for which use the compounds might be most suitable.

Another experiment concerns the target NK2 (Homo sapiens, UniProt P21452). The experiment in a line: Signal transduction (ST), intracellular Ca++ FLIPR, NK2.

As to `O=C(c1cc(C(F)(F)F)cc(C(F)(F)F)c1)N1CC[C@@H](N2CCC3(CCCN3C(=O)C3CC3)C2)C[C@H]1Cc1ccccc1` (stereo partly drawn), the “NK3 pIC50” value on NK3 is given as below 5. On NK1, the “NK1 pIC50” value was determined as 6.7. At NK2, the “NK2 pIC50” value was found to be 5.2.
